{
  "source": "paper PMC1920558",
  "about": "(PLoS ONE, 2007)",
  "biological_target": "T1, IDE (Rattus norvegicus, UniProt P35559)",
  "T1 sequence (P35559 1-1019)": "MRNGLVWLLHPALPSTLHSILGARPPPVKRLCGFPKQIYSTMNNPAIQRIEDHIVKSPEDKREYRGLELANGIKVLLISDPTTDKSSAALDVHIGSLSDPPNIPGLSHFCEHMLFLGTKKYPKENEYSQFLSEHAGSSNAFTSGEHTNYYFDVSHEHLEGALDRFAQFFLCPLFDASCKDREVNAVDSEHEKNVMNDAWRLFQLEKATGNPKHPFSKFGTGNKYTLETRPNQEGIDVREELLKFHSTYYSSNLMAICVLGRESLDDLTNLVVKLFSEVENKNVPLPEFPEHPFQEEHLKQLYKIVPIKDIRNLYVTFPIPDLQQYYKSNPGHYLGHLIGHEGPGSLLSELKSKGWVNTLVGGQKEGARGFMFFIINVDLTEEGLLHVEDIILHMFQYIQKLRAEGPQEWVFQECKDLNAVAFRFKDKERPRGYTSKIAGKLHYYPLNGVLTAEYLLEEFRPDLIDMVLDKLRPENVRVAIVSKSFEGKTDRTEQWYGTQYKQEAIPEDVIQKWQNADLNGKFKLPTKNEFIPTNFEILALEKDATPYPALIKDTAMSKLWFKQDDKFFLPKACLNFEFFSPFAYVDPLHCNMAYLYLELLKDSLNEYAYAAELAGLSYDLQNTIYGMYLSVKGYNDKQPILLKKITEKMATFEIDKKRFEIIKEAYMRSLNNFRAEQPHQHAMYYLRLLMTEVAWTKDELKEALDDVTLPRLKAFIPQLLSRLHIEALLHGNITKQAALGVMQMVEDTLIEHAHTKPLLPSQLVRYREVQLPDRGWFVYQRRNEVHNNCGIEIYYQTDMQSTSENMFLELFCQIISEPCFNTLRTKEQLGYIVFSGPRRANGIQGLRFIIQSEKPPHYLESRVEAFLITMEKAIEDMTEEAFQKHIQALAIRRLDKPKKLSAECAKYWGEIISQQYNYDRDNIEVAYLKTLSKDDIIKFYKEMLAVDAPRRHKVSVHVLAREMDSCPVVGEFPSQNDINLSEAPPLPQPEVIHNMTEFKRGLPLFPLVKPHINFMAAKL",
  "assay": "Specificity/inhibition of T40-degrading activity of IDE",
  "format": "biochemical",
  "design": "purchased Merck, UK",
  "conditions": "16 µM T40, 22 nM IDE, 37°C, 90 min; insulin or IgG 2–16 µM, 1,10-phenanthroline 1 and 10 mM",
  "data": [
    {"smiles": "c1cnc2c(c1)ccc1cccnc12", "note": "[1,10-phenanthroline]", "values": [
      {"measurement": "inhibition of IDE degradation of T40", "value": "dose dependent inhibition"}
    ]}
  ]
}
